Source: PubChem BioAssay AID951 (NMMLSC, 2007)
The entries are a selection whose mix differs from that of the whole data set. Activity calls are given as the source filed them. No stated cut-off is given here; in the data, active means inhibition above about 40%.

The chains behind the UniProt entries cited, without tags or fusion partners.
UniProt Q9HD36, whole entry: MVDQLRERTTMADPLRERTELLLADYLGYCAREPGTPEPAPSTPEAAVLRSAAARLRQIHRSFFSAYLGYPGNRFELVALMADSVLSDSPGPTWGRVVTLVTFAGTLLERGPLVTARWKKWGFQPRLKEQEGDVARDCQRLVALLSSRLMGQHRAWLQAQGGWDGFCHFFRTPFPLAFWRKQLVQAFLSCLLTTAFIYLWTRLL

Target: Bcl-2-like protein 10 (Homo sapiens) (UniProt Q9HD36)
Assay: Bcl-B and Bim peptide interaction disruptors – biochemical, multiplexed, human Bcl-2 family, primary screen (AID 951);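 further: 0% = tracer peptide without compound and 100% = reference inhibitor peptide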
Conditions: bead-based flow cytometry, Bim peptide-Bcl-B binding; at 10 µM; hits give high values

| SMILES | inhibition |
| --- | --- |
| O=[N+]([O-])c1cc([N+](=O)[O-])c(-n2nnc3ccccc32)c([N+](=O)[O-])c1 | inactive: -7% |
| Cc1nc2ccc3ccccc3c2s1.O=[N+]([O-])c1cc([N+](=O)[O-])c(O)c([N+](=O)[O-])c1 | inactive: -8% |
| COc1ccccc1OP(C)(=O)Nc1c(C)cccc1C (centres undefined) | inactive: 0% |
| CN1CCCCC1COC(=O)C1(O)c2ccccc2CCc2ccccc21 (centres undefined) | inactive: -10% |
| CCCOc1ccc(NP(C)(=O)Oc2ccc(Cl)cc2)cc1 (centres undefined) | inactive: -5% |
| CP(=O)(Nc1ccc(SC(F)(F)F)cc1)Oc1ccccc1 (centres undefined) | inactive: -8% |
| CC1=NCCc2c1[nH]c1ccccc21.O=[N+]([O-])c1cc([N+](=O)[O-])c(O)c([N+](=O)[O-])c1 | inactive: -2% |
| CCOC(=O)c1ccc(NP(C)(=O)Oc2cc(C)cc(C)c2)cc1 (centres undefined) | inactive: 0% |
| Cc1cc(C)cc(OP(C)(=O)Nc2ccc(C)cc2C)c1 (centres undefined) | inactive: -4% |
| Cc1ccc(C)c(NP(C)(=O)Oc2ccccc2)c1 (centres undefined) | inactive: -5% |
| Cc1cc(C)cc(OP(C)(=O)Nc2ccccn2)c1 (centres undefined) | inactive: -12% |
| CP(=O)(Nc1cccc(Br)c1)Oc1ccccc1 (centres undefined) | inactive: 0% |
| CCN(CC)CCCOC(=O)C(O)(c1ccccc1)c1ccccc1 | inactive: -1% |
| O=[N+]([O-])c1ccc2c(c1)C=Nc1ccccc1O2 | inactive: -4% |
| Cc1cccc(C)c1OP(C)(N)=O (centres undefined) | inactive: -2% |
| CC(C)(C)c1ccc(OP(C)(=O)Nc2ccc(SC(F)(F)F)cc2)cc1 (centres undefined) | inactive: -4% |
| Cc1ccc(NP(C)(=O)Oc2ccccc2)c(C)c1 (centres undefined) | inactive: -5% |
| COc1ccccc1OP(C)(=O)Nc1ccc(C)cc1 (centres undefined) | inactive: 7% |
| CCOC(=O)c1ccc(NP(C)(=O)Oc2ccccc2)cc1 (centres undefined) | inactive: -7% |
| Cc1cc(C)cc(OP(C)(N)=O)c1 (centres undefined) | inactive: -2% |
| COc1ccc(OP(C)(=O)Nc2cccc(F)c2)cc1 (centres undefined) | inactive: 1% |
| COc1ccccc1OP(C)(=O)Nc1cc(Cl)ccc1C (centres undefined) | inactive: 0% |
| CP(=S)(Nn1cnnc1)Oc1ccccc1 (centres undefined) | inactive: -4% |

| SMILES | inhibition |
| --- | --- |
| CP(=O)(Nc1ccccc1Br)Oc1ccccc1 (centres undefined) | inactive: 0% |
| COc1ccccc1OP(C)(=O)Nc1ccccc1 (centres undefined) | inactive: -3% |
| CP(=O)(Oc1ccccc1)OC(c1ccccc1)C(F)(F)F (centres undefined) | inactive: -5% |
| Cc1cccc(C)c1OP(C)(=O)Nc1ccc(SC(F)(F)F)cc1 (centres undefined) | inactive: 7% |
| Cc1cc(C)cc(OP(C)(=O)Nc2ccc(SC(F)(F)F)cc2)c1 (centres undefined) | inactive: 8% |
| CP(=O)(NC(=O)Nc1ccccc1)Oc1ccccc1 (centres undefined) | inactive: -2% |
| CCOC(=O)c1ccc(NP(C)(=O)Oc2ccc(OC)cc2)cc1 (centres undefined) | inactive: -14% |
| CCOP(C)(=S)SCC(=O)NC(C)C(=O)O (centres undefined) | inactive: 2% |
| CP(=O)(Nc1ccccn1)Oc1ccc(Cl)cc1 (centres undefined) | inactive: 1% |
| COc1ccc(OP(C)(=O)Nc2ccc(Br)cc2)cc1 (centres undefined) | inactive: -7% |
| CCN(CC)CC(O)COC(=O)C(O)(c1ccccc1)C1CCCCC1 (centres undefined) | inactive: -6% |
| CCc1ccc(OP(C)(=O)Nc2cccnc2)cc1 (centres undefined) | inactive: 0% |
| CP(=O)(Oc1ccccc1)N1CCOC1=O (centres undefined) | inactive: -3% |
| COc1ccccc1OP(C)(=O)Nc1ccccc1Br (centres undefined) | inactive: -5% |
| CC(C)(C)c1ccc(OP(C)(=O)O)cc1 | inactive: 1% |
| CP(=O)(Nc1ccc(Cl)cc1)Oc1ccc(F)cc1 (centres undefined) | inactive: 0% |
| CN(C)C(=O)c1c([N+](=O)[O-])cc([N+](=O)[O-])cc1[N+](=O)[O-] | inactive: 0% |
| CCOC(=O)c1ccc(NP(C)(=O)Oc2ccc(Cl)cc2)cc1 (centres undefined) | inactive: -5% |
| CP(=O)(OC12CC3CC(CC(C3)C1)C2)OC12CC3CC(CC(C3)C1)C2 | inactive: -10% |
| Cc1cc(C)cc(OP(C)(=O)Nc2cccc(C(F)(F)F)c2)c1 (centres undefined) | inactive: 0% |
| COc1ccccc1OP(C)(=O)Nc1ccc(C)c(C)c1 (centres undefined) | inactive: -3% |
| COc1ccc(OP(C)(=O)Nc2ccccc2Br)cc1 (centres undefined) | inactive: -1% |
| Cc1nc2ccc3ccccc3c2o1.O=[N+]([O-])c1cc([N+](=O)[O-])c(O)c([N+](=O)[O-])c1 | inactive: 0% |

| SMILES | inhibition |
| --- | --- |
| CP(=O)(Nc1ccc(Cl)cc1Cl)Oc1ccccc1 (centres undefined) | inactive: -4% |
| CP(=O)(OCCOc1ccccc1)OCCOc1ccccc1 | inactive: -4% |
| COc1ccc(OP(C)(=O)Nc2ccccn2)cc1 (centres undefined) | inactive: -4% |
| CN(C)CCOC(=O)C(O)(c1ccccc1)C1CCCC1 (centres undefined) | inactive: -4% |
| Cc1c(NP(C)(=O)Oc2ccc(C(C)C)cc2)c(=O)n(-c2ccccc2)n1C (centres undefined) | inactive: 0% |
| O=[N+]([O-])c1cc([N+](=O)[O-])c(Nc2ccccn2)c([N+](=O)[O-])c1 | inactive: -6% |
| COc1ccccc1OP(C)(=O)Nc1ccc(C)cc1C (centres undefined) | inactive: -5% |
| CP(=O)(Nc1ccccn1)Oc1ccccc1 (centres undefined) | inactive: -6% |
| CCc1ccc(OP(C)(=O)O)cc1 | inactive: 2% |
| CP(=O)(Nc1ccccc1F)Oc1ccccc1 (centres undefined) | inactive: -5% |
| CC(C)c1ccc(OP(C)(=O)Nc2ccc(SC(F)(F)F)cc2)cc1 (centres undefined) | inactive: -12% |
| O=C(OCCN1CCN(CCOCc2ccccc2)CC1)C(O)(c1ccccc1)c1ccccc1 | inactive: -3% |
| CCOC(=O)c1ccc(NP(C)(=O)Oc2ccc(F)cc2)cc1 (centres undefined) | inactive: -11% |
| COc1ccc(OP(C)(=O)Nc2ccc(SC(F)(F)F)cc2)cc1 (centres undefined) | inactive: -2% |
| CCN(CC)CCCOC(=O)C(O)(c1ccccc1)C1CCCCC1 (centres undefined) | inactive: -4% |
| CP(=O)(Nc1ccccc1)Oc1ccc(F)cc1 (centres undefined) | inactive: -3% |
| COc1ccc(OP(C)(=O)Nc2cccc(Br)c2)cc1 (centres undefined) | inactive: -6% |
| CN(C)CCOC(=O)C(O)(c1ccccc1)C1CCCCC1 (centres undefined) | inactive: -2% |
| COc1ccc(NP(C)(=O)Oc2ccccc2OC)cc1 (centres undefined) | inactive: -1% |
| O=[N+]([O-])c1cc([N+](=O)[O-])c(NCC2CCS(=O)(=O)C2)c([N+](=O)[O-])c1 (centres undefined) | inactive: -3% |
| CCOP(C)(=S)SCC(=O)NC(C)(CC)C(=O)O (centres undefined) | inactive: -10% |
| CP(=O)(Nc1ccc2c(c1)OCCO2)Oc1ccccc1 (centres undefined) | inactive: 2% |
| Cc1ccccc1NP(C)(=O)Nc1ccccc1C | inactive: -7% |
